Assay results from PubChem BioAssay AID1469 (National Center for Advancing Translational Sciences (NCATS), 2008).
Only a part is listed here, and it is no random draw. Calls of active or inactive are those of the source. The call rests on the fitted dose curve; in most records, active means well fitted inhibition curve with a large enough effect; inconclusive means small, poorly fitted or top-dose-only effect, or effect the other way; inactive means flat fitted curve, though single readings scatter.

The chains behind the UniProt entries cited, without tags or fusion partners.
UniProt P10828, whole entry: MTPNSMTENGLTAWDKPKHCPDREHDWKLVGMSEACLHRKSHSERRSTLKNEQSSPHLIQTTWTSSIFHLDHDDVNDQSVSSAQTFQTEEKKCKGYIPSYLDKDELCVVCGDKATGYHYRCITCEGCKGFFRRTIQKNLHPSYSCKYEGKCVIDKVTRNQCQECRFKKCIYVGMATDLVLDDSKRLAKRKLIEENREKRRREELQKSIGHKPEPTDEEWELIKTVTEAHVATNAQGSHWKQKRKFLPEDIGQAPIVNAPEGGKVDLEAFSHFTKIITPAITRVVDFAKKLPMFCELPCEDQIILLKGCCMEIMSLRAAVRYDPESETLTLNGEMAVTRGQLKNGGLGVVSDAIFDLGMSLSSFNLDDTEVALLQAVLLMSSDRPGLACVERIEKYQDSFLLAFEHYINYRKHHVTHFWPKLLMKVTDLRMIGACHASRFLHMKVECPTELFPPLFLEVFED

What follows are molecules tested against Thyroid hormone receptor beta (Homo sapiens) (UniProt P10828) (assay: qHTS for Inhibitors of the Interaction of Thyroid Hormone Receptor and Steroid Receptor Coregulator 2). Conditions: TRbeta-SRC2 peptide binding, fluorescence polarization, receptor liganded with 1 µM T3; at 106 µM (top of the series).
From the text: NIH Molecular Libraries Probe Production Network [MLPCN]
NIH Chemical Genomics Center [NCGC]
Assay Provider: R. Kip Guy, St. Jude Children's Research Hospital
Thyroid receptor (TR) regulates many homeostatic processes including basal metabolism, cardiovascular function, body weight, and lipid trafficking. TR modulators are potential therapeutics for obesity and hyperlipidemias but current thyroid analogs have undesirable side effects, particularly cardiac stimulation. To identify inhibitors that specifically prevent the interaction of TR with the steroid receptor coregulator 2 (SRC2), a fluorescence polarization assay was screened. This assay detects interaction of the ligand-binding domain of human TRb with a Texas Red labeled SRC2 peptide, corresponding to a 20 amino acid region of the nuclear receptor interaction domain (Arnold et al., 2006). Small molecule inhibitors that block the interaction of TR and SRC2 are detected by a decrease in fluorescence polarization.
Arnold, L. A.; Estebanez-Perpina, E.; Togashi, M.; Shelat, A.; Ocasio, C. A.; McReynolds, A. C.; Nguyen, P.; Baxter, J. D.; Fletterick, R. J.; Webb, P.; Guy, R. K. A high-throughput screening method to identify small molecule inhibitors of thyroid hormone receptor coactivator binding. […]
Keywords: NIH Roadmap, MLPCN, MLI, MLSMR, qHTS, NCGC, qHTS, thyroid hormone receptor, steroid receptor coactivator, fluorescence polarization
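Further: plate controls were bound peptide for no effect and peptide without receptor for full effect; nearly all actives have a fitted effect of over 50% in size.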

Row | Structure (SMILES) | activity change, negative = inhibition
1 | CP(=O)(Nc1ccc(Cl)cc1Cl)Oc1ccccc1 (stereo unspecified) | inactive: -3.1%
